# Reference: PubChem BioAssay AID624465 (National Center for Advancing Translational Sciences (NCATS), 2012)
# The chains behind the UniProt entries cited, without tags or fusion partners.
# UniProt P14416, whole entry: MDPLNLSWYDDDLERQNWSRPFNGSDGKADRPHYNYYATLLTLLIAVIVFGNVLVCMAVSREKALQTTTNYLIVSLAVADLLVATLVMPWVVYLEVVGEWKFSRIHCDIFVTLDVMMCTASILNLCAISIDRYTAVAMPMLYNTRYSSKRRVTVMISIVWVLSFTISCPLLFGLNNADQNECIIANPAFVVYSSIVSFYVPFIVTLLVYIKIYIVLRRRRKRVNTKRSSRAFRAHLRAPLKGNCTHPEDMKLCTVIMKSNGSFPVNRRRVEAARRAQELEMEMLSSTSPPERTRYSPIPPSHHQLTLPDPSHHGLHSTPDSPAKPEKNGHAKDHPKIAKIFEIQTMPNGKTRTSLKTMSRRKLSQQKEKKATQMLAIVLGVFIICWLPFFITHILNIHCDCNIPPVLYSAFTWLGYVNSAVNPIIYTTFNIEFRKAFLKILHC
# The entries are a selection whose mix differs from that of the whole data set. The source made the active and inactive calls. No stated cut-off is given here; in the data, active means activation above about 40%; inconclusive means between about 15% and that limit; inactive means weaker than that.
# Target: D(2) dopamine receptor (Homo sapiens) (UniProt P14416)
# Test: Beta-Arrestin HTS for Positive Allosteric Modulators of the Human D2 Dopamine Receptor: Agonists
# Settings: DiscoveRx PathHunter D2 beta-arrestin, luminescence, 90 min; active compounds read high; 100% = 57 uM dopamine signal
# Outline: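 DiscoveRx PathHunter D2 beta-arrestin cells (2,100/well) attached overnight, then compound-stimulated 90 min at 37 C in HBSS/10 mM HEPES/0.1% Tween-20 buffer; beta-galactosidase complementation read by luminescence after 1 h at ambient temperature. Dopamine 57 uM final (EC100) as control.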
row,Compound,activation
1,CP(=O)(Nc1ccccc1Br)Oc1ccccc1 (stereo not drawn),inactive: -10.3%
2,COc1ccccc1OP(C)(=O)Nc1ccccc1 (stereo not drawn),inactive: -2.68%
3,Cc1cc(SC(NC=O)C(Cl)(Cl)Cl)ncn1 (stereo not drawn),inactive: -2.93%
4,O=P(Nc1ccccn1)(c1cccc2ccccc12)c1cccc2ccccc12,inactive: 2.54%
5,COc1cc(C(=O)NCC2(N3CCOCC3)CCCCC2)ccc1OCC(C)C,inactive: -0.351%
6,O=[N+]([O-])c1ccc(-c2cc([N+](=O)[O-])c(O)c([N+](=O)[O-])c2)cc1,inactive: -8.85%
7,O=[As](O)(c1ccc(O)cc1)c1ccccc1O,inactive: 0.545%
8,C[As](=O)(O)c1cccc(C(=O)O)c1,inactive: -8.06%
9,O=[N+]([O-])c1cc([N+](=O)[O-])c(Nc2cccnc2)c([N+](=O)[O-])c1,inactive: -15%
10,Cc1ccc2nc3c(c(C)c2c1)CC(C(Cl)Cl)S3 (stereo not drawn),inactive: 7.3%
11,O=[N+]([O-])c1ccc2c(c1)C=Nc1ccccc1O2,inactive: 1.45%
12,Cc1cccc(C)c1OP(C)(N)=O (stereo not drawn),inactive: -3.52%
13,CC(C)(C)c1ccc(OP(C)(=O)Nc2ccc(SC(F)(F)F)cc2)cc1 (stereo not drawn),inactive: -7.33%
14,Cc1ccc(OP(=O)(Nc2ccc([N+](=O)[O-])cn2)Oc2ccc(C)cc2)cc1,inactive: -5.06%
15,Cc1ccc(NP(C)(=O)Oc2ccccc2)c(C)c1 (stereo not drawn),inactive: -4.25%
16,CC(C)c1ccc(OP(=O)(Nc2ccccn2)Oc2ccccc2F)cc1 (stereo not drawn),inactive: 0.724%
17,COC(=O)C1(C)COP(=O)(N2CCCCCC2)OC1 (stereo not drawn),inactive: 0.233%
18,COc1ccccc1OP(C)(=O)Nc1ccc(C)cc1 (stereo not drawn),inactive: -0.708%
19,ClCCSc1nnc(-c2cccnc2)o1,inactive: -0.881%
20,CCOC(=O)c1ccc(NP(C)(=O)Oc2ccccc2)cc1 (stereo not drawn),inactive: -0.665%
21,Cc1cc(C)cc(OP(C)(N)=O)c1 (stereo not drawn),inactive: -9.26%
22,O=[N+]([O-])c1cc([N+](=O)[O-])c(-c2ccn[nH]2)s1,inactive: 4.18%
23,COc1ccc(OP(C)(=O)Nc2cccc(F)c2)cc1 (stereo not drawn),inactive: -2.1%
24,CCN(CC)C(=S)SC(NC=O)C(Cl)(Cl)Cl (stereo not drawn),inactive: -1.47%
25,O=C(OC1CN2CCC1CC2)c1cccc2[nH]cnc12 (stereo not drawn),inactive: 7.19%
26,CC(C)NC(=O)NP(=O)(Oc1ccccc1)Oc1ccccc1,inactive: -1.64%

row,Compound,activation
1,COc1ccccc1OP(C)(=O)Nc1cc(Cl)ccc1C (stereo not drawn),inactive: -2.62%
2,Cc1cc(=O)[nH]c(N[N+](=O)[O-])n1,inactive: -3.05%
3,CCN(CC)CCCOC(=O)C(O)(c1ccccc1)c1ccccc1,inactive: 0.107%
4,O=C(OC1CN2CCC1CC2)C12CC3CC(CC(C3)C1)C2 (stereo not drawn),inactive: -1.73%
5,Cc1c2c(nc3ccccc13)SC(C(Cl)Cl)C2 (stereo not drawn),inactive: 2.03%
6,COc1cc(I)ccc1[As](=O)(O)O,inactive: -3.95%
7,COc1ccc2nc(NP(=O)(c3ccccc3)c3ccccc3)sc2c1,inactive: -0.0487%
8,O=P1(N(CCCl)CCCl)Nc2ccccc2N1,inactive: -1.88%
9,O=P1(N(CCCl)CCCl)OCCCN1CCCl (stereo not drawn),inactive: -2.96%
10,COc1ccc(N/C(=N/P(=O)(N2CCOCC2)N2CCOCC2)N2CCOCC2)cc1,inactive: -0.504%
11,COc1ccccc1OP(C)(=O)Nc1cccc(Br)c1 (stereo not drawn),inactive: -3.88%
12,CS(=O)(=O)c1ccc(Cl)c(NC(=O)COC(=O)C(O)(c2ccccc2)c2ccccc2)c1,inactive: 5.46%
13,COc1cc(C(=O)NCC2(N3CCOCC3)CCCCC2)cc(Cl)c1OC(C)C,inactive: 4.13%
14,O=[As](O)(O)c1cccnc1,inactive: -3.55%
15,O=C(OC1CN2CCC1CC2)c1ccc(Cl)cc1 (stereo not drawn),inactive: -1.89%
16,CCOC(=O)c1ccc(NP(C)(=O)Oc2cc(C)cc(C)c2)cc1 (stereo not drawn),inactive: -1.75%
17,Cc1cc(C)cc(OP(C)(=O)Nc2ccc(C)cc2C)c1 (stereo not drawn),inactive: -3.61%
18,O=[As](O)(c1cccc(O)c1)c1cccc(O)c1,inactive: -0.903%
19,Cc1cccc(OCC(=O)OC2CN3CCC2CC3)c1 (stereo not drawn),inactive: 1.5%
20,CCCOP(=S)(Nc1nc(N)cc(=O)[nH]1)OCCC,inactive: 0.447%
21,Cc1ccc(C)c(NP(C)(=O)Oc2ccccc2)c1 (stereo not drawn),inactive: -1.74%
22,Cc1ccc(NCCc2c([N+](=O)[O-])cc([N+](=O)[O-])cc2[N+](=O)[O-])cc1,inactive: 8.75%
23,Nc1cccc2c([As](=O)(O)O)cccc12,inactive: 8.34%
24,CP(=O)(Nc1cccc(Br)c1)Oc1ccccc1 (stereo not drawn),inactive: -3.78%
25,Cc1cc(C)cc(OP(C)(=O)Nc2ccccn2)c1 (stereo not drawn),inactive: -0.557%
26,CCOP(=O)(Nc1cccc2ccccc12)OCC,inactive: -3.31%

row,Compound,activation
1,CS(=O)(=O)c1cc([N+](=O)[O-])c2no[n+]([O-])c2c1,inactive: 7.78%
2,O=P(Nc1nccs1)(c1ccccc1)c1nc2ccccc2s1 (stereo not drawn),inactive: -6.07%
3,O=P(Nc1nccs1)(Oc1ccccc1)Oc1ccccc1,inactive: -0.432%
4,CCOP1(=S)c2c(C)nn(CCC#N)c2N=C(c2ccccc2F)N1C (stereo not drawn),inactive: -4.82%
5,O=C(O)COc1ccc([As](=O)(O)O)cc1[N+](=O)[O-],inactive: -1.09%
6,Nc1ccccc1[As](=O)(O)c1ccccc1,inactive: -2.49%
7,NC(=O)Nc1ccc([As](=O)(O)O)cc1,inactive: -1.51%
8,CN(C(=O)Cc1ccc(Cl)c(Cl)c1)[C@H]1CC[C@@]2(CCCO2)C[C@@H]1N1CCCC1,inactive: -7.75%
9,CC1=NCCc2c1[nH]c1ccccc21.O=[N+]([O-])c1cc([N+](=O)[O-])c(O)c([N+](=O)[O-])c1,inactive: -5.27%
10,CN(C)C(=O)c1cc([N+](=O)[O-])cc2c1-c1c(cc([N+](=O)[O-])cc1[N+](=O)[O-])C2=O,inactive: 6.69%
11,O=[N+]([O-])c1ccc2c(c1)nnn2O,inactive: -5.24%
12,CN(C(=O)Cc1ccccc1)[C@@H]1CC[C@]2(CCCO2)C[C@H]1N1CCCC1,inactive: -2.48%
13,CCOP1(=S)c2c(C)nn(CCC#N)c2N=C(c2ccc(F)cc2)N1C (stereo not drawn),inactive: -0.124%
14,N#CCCN(C(=O)COC(=O)C(O)(c1ccccc1)c1ccccc1)c1ccc(F)cc1,inactive: -4.77%
15,COc1cc(C2NCCC3(OCCO3)C2(C)C)cc(OC)c1OC.O=[N+]([O-])c1cc([N+](=O)[O-])c(O)c([N+](=O)[O-])c1 (stereo not drawn),inactive: -5.36%
16,Cc1ccc(C(=O)OC2CN3CCC2CC3)cc1 (stereo not drawn),inactive: 2.02%
17,CC1CCC(C(C)C)C(OP(=O)(Nc2ccccn2)c2ccccc2)C1 (stereo not drawn),inactive: -4.65%
18,Cc1nn(-c2ccccc2)c2c1P(=O)(N1CCOCC1)N(C)C(c1ccccc1)=N2 (stereo not drawn),inactive: -1.47%
19,CCCC1OP(=O)(Nc2ccccc2)OCC1CC (stereo not drawn),inactive: -2.26%
20,O=C(/C=C/c1ccccc1)OC1CN2CCC1CC2 (stereo not drawn),inactive: -6.32%
21,O=[N+]([O-])c1cc([N+](=O)[O-])c(Nc2nnnn2CCO)c([N+](=O)[O-])c1,inactive: -7.17%
22,CC1=C2N=C(C=C3N=C(C(C)=C4[N-][C@@](C)([C@@H]5N=C1[C@](C)(CCC(=O)NC[C@@H](C)OP(=O)([O-])O[C@H]1[C@@H](O)[C@@H](n6cnc7cc(C)c(C)cc76)O[C@@H]1CO)[C@H]5CC(N)=O)[C@@](C)(CC(N)=O)[C@@H]4CCC(N)=O)[C@@](C)(CC(N)=O)[C@@H]3CCC(N)=O)C(C)(C)[C@@H]2CCC(N)=O.[C-]#N.[Co+3],inactive: -6.99%
23,CN(C)C1(CNC(=O)c2ccc(S(C)(=O)=O)cc2)CCCCC1,inactive: -4.82%
24,O=P1(Nc2ncccn2)COc2ccccc2OC1,inactive: 0.0052%
25,CN1CCCCC1COC(=O)C1(O)c2ccccc2CCc2ccccc21 (stereo not drawn),inactive: -0.671%
26,COc1ccccc1OP(C)(=O)Nc1c(C)cccc1C (stereo not drawn),inactive: -1.92%

row,Compound,activation
1,NS(=O)(=O)c1cccc(NC(=O)COC(=O)C(O)(c2ccccc2)c2ccccc2)c1,inactive: 0.0479%
2,O=P1(Nc2ccc(Br)cn2)COc2ccccc2OC1,inactive: -1.6%
3,Cc1ccc(OCC(=O)OC2CN3CCC2CC3)cc1 (stereo not drawn),inactive: -3.36%
4,O=[As](O)(c1cccs1)c1cccs1,inactive: -9.42%
5,Nc1cccc([As](=O)(O)c2ccccc2)c1,inactive: -4.74%
6,CP(=O)(Nc1ccc(SC(F)(F)F)cc1)Oc1ccccc1 (stereo not drawn),inactive: -6.14%
7,CCCOc1ccc(NP(C)(=O)Oc2ccc(Cl)cc2)cc1 (stereo not drawn),inactive: -3.91%
8,CN(CCCl)Cc1cc(Cl)c(NC2=NCCN2)c(Cl)c1,inactive: -3.87%
9,CCOP(=O)(Nc1ccc(C)cn1)OCC,inactive: 3.13%
10,Nc1ccc(CCCCOc2ccccc2)cc1.O=[N+]([O-])c1cc([N+](=O)[O-])c(O)c([N+](=O)[O-])c1,inactive: -14.5%
11,CCOP(=O)(NC(=NC(C)c1ccccc1)NC(C)c1ccccc1)OCC (stereo not drawn),inactive: 6.81%
12,O=[N+]([O-])c1cc([N+](=O)[O-])c(-n2nnc3ccccc32)c([N+](=O)[O-])c1,inactive: -7.45%
13,O=C(O)C(O)c1ccc(N(CCCl)CCCl)cc1.c1ccncc1 (stereo not drawn),inactive: -3.08%
14,CCC1=CC2Cc3nc4ccc(Cl)cc4c(N)c3C(C1)C2 (stereo not drawn),inactive: 3.24%
15,O=P1(Nc2ccccn2)COc2ccccc2OC1,inactive: 2.26%
16,CC(C)(C)C(=O)NC(Sc1ncccn1)C(Cl)(Cl)Cl (stereo not drawn),inactive: -4.11%
17,CN(Cc1cccnc1)C(=O)COc1ccc(Cl)c(Cl)c1.O=[N+]([O-])c1cc([N+](=O)[O-])c(O)c([N+](=O)[O-])c1,inactive: -13.7%
18,Clc1n[nH]nc1-c1nn[nH][15n]1,inactive: -1.88%
19,O=P1(N(CCCl)CCCl)NCCC(C(F)(F)F)O1 (stereo not drawn),inactive: -1.63%
20,COc1ccccc1CNC(=O)COC(=O)C(O)(c1ccccc1)c1ccccc1,inactive: -4.93%
21,CC1(CBr)Cn2c(nc3ccccc3c2=O)S1 (stereo not drawn),inactive: 0.424%
22,Cc1nc2ccc3ccccc3c2s1.O=[N+]([O-])c1cc([N+](=O)[O-])c(O)c([N+](=O)[O-])c1,inactive: -10.2%
23,CN(C(=O)Cc1ccc(Cl)c(Cl)c1)[C@@H]1CCCC[C@H]1N1CCCC1,inactive: -6.55%
24,CC(C)/C=N\N=C(\N)N[N+](=O)[O-],inactive: -3.74%
25,Cc1ccc(S(=O)(=O)N(CCCN)CCCc2c(C)nc(N)[nH]c2=O)cc1.O=[N+]([O-])c1cc([N+](=O)[O-])c(O)c([N+](=O)[O-])c1,inactive: -16.5%
